Chains of the proteins cited; added tags and fusions are not shown.
UniProt O00763, whole entry V2141I: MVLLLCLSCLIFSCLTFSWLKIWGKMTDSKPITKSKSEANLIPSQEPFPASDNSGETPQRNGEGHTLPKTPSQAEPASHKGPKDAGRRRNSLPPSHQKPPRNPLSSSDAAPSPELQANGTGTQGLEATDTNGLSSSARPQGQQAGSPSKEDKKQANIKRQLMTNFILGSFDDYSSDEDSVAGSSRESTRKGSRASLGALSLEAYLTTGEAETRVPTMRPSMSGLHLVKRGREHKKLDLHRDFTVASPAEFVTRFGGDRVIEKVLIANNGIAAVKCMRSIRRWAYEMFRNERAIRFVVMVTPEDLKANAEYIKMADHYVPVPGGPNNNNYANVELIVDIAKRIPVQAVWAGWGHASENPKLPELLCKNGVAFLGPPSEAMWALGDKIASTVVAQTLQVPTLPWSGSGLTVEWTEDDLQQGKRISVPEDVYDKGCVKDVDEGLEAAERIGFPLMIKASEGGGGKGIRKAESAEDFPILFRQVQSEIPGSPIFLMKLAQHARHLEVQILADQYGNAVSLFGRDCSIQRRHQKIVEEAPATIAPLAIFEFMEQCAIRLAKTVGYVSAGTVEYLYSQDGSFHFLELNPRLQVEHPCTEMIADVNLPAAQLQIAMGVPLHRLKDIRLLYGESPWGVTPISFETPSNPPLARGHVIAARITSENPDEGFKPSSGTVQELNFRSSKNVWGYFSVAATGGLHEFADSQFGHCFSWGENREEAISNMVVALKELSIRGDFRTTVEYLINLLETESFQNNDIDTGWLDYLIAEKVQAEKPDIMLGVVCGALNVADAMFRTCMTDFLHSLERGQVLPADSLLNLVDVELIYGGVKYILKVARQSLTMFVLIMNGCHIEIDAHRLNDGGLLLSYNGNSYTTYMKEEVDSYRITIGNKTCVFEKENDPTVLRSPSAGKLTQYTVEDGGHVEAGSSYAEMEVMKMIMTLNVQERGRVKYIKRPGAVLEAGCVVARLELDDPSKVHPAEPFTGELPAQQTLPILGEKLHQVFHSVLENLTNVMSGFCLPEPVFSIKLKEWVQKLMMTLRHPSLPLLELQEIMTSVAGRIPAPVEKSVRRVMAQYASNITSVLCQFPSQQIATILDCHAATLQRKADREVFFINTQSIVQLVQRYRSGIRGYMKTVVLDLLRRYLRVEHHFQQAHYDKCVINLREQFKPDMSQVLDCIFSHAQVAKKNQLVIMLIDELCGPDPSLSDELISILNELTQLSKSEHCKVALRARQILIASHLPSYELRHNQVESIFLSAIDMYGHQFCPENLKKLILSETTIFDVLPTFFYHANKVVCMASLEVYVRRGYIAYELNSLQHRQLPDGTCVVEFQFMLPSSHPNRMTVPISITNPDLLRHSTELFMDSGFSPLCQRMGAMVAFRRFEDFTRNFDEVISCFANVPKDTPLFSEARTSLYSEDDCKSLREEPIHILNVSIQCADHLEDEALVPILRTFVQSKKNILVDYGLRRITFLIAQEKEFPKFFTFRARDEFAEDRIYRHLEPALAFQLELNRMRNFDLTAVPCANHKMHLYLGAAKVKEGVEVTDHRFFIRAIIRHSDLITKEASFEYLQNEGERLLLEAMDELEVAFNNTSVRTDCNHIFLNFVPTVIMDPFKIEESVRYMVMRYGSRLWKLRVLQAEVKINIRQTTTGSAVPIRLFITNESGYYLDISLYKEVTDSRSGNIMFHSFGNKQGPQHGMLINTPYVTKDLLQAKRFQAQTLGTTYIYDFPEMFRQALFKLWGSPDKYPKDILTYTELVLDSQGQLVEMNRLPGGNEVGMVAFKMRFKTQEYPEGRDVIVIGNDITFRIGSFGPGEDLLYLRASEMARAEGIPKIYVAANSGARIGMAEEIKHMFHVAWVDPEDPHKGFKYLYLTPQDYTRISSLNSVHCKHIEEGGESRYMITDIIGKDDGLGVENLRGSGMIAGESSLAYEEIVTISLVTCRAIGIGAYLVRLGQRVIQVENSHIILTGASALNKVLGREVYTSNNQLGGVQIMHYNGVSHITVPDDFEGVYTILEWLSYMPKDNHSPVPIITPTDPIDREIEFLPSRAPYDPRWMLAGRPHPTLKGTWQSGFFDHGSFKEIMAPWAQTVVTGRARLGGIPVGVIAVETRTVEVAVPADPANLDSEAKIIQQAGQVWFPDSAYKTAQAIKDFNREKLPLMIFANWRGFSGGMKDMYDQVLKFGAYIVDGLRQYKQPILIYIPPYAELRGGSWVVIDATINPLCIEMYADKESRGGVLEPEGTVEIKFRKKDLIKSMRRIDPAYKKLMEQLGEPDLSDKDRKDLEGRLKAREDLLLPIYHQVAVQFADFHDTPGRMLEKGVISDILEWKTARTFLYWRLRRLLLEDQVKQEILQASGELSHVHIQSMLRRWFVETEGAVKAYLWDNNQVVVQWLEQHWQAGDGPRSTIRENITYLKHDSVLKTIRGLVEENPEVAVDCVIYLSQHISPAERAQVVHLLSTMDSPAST

According to patent US8993586B2, “N1/N2-lactam acetyl-CoA carboxylase inhibitors” (Pfizer Inc., priority 2010, dated 2015):

Columns and labels:
[1] = target: recombinant human ACC1 (rhACC1) (Homo sapiens (Human), UniProt Q13085); assay: recombinant hACC1 Transcreener ADP detection FP assay; format: biochemical; conditions: read-out: hACC1 IC50, 50 μM ATP, 120 min at 25° C.
[2] = target: recombinant human ACC2 (rhACC2) (Homo sapiens (Human), UniProt O00763); assay: recombinant hACC2 Transcreener ADP detection FP assay; format: biochemical; conditions: read-out: hACC2 IC50, 50 uM ATP, 50 min at 25° C.

CC(C)n1cc2c(n1)C(=O)NC1(CCN(C(=O)c3ccc4[nH]ncc4c3)CC1)C2 was tested, and the IC50 [1] was 329 nM and the IC50 [2] was 97 nM.
